This test deals with maltase-glucoamylase (Rattus norvegicus). As to the kind of experiment: Inhibition of rat intestinal maltase at 1000 uM by spectrophotometry.

The record followed here is ChEMBL document CHEMBL1151206, “Glycosidase-inhibiting pyrrolidines and pyrrolizidines with a long side chain in Scilla peruviana” (J Nat Prod, 2004).

Some results are limits rather than exact numbers.

On to `CC(O)C[C@H]1N[C@H](CO)[C@@H](O)[C@@H]1O` (stereo partly specified), for which the inhibition was under 50%.
